US20250313577A1, “TRICYCLIC PYRIDONES AND PYRIMIDONES” (ERASCA, INC, priority 2022, published 2025)

Amino acid sequences for entries named in this document (tags omitted). Residues count along the entry.
UniProt P01116, 1-188 isoform 2 G12C: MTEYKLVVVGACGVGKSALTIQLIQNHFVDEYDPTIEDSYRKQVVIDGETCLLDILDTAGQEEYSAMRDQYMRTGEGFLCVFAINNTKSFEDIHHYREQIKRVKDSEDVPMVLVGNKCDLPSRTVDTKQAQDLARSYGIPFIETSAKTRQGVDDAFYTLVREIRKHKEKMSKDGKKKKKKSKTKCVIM

biological target: KRAS G12C (Homo sapiens, UniProt P01116, G12C); test: phospho-ERK HTRF assay in Ras Initiative (RI) KRAS G12C cells; conditions: read-out: pERK (RI) nM, phospho-ERK1/2 HTRF, 11-point dose response from 2,500 nM, treatment for either 4 hours or 16 hours
Procedure: Inhibition of KRAS G12C-Mediates Phospho-ERK1/2 Inhibition by Compounds of Formula I
This Example illustrates that various compounds of the present disclosure inhibit KRAS G12C thereby mediating the downstream inhibition of phospho-ERK1/2.
KRAS G12C mutant cell lines, NCI H358 (ATCC, CRL-5807), and Ras Initiative (R1) KRAS G12C were cultured according to published protocols and maintained at 37° C. in 5% CO2. The phospho-ERK HTRF assay was executed following provider's protocol (CisBio #64AERPEH). NCI-H358 or RI KRAS G12C cells were plated at a density of 50,000 cells per well in a 96-well plate (Corning #3903) in respective medias (for NCI-H358, RPMI+10% FBS+1% Pen/Strep, and for RI KRAS G12C, DMEM+10% FBS+1% Pen/Strep+4 ug/ml Blasticidin) and maintained at 37° C. in 5% CO2. Cells were allowed to adhere overnight and treated the following day with a Tecan D300e Digital Dispenser (Tecan Group Ltd., Switzerland) using an 11-point dose response starting at 2,500 nM of exemplified compounds followed by sequential 1:3 dilutions for either 4 hours or 16 hours. Following compound treatment, the cells were washed once with ice-cold PBS. Cells were lysed by adding 50 μl of lysis buffer (1×) supplemented with 1× Pierce Halt Protease and Phosphatase inhibitor and incubated for 30 minutes at 4° C. with shaking. After lysis, 16 μL of cell lysate from the 96-well cell-culture plate was transferred to a 384-well plate (Perkin Elmer #6007290). The premixed antibody solution was prepared by mixing (vol/vol) advanced phospho-ERK1/2 d2 antibody and advanced phospho-ERK1/2 Eu Cryptate antibody. The premixed antibody solution ([…]) was added to the detection plate containing cell lysate. The detection plate was incubated overnight at 4° C., the HTRF signal was read the next day by using either a Spectramax M5 or Spectramax i3 microplate reader (Molecular Devices, San Jose, CA, USA), and data was processed according to manufacturer's protocol.
Compounds prepared according to the preceding procedures and characterized for inhibition of p-ERK according to the protocol provided herein are summarized in Table 3: […]

| IC50 | Compound |
| --- | --- |
| 2 to 20 nM | C=CC(=O)N1[C@H](C)CN(c2nc(=O)n3c4c(c(-c5cc(Cl)c(F)cc5F)c(C(F)(F)F)cc24)SC[C@H](c2ccncc2)C3)C[C@@H]1C |
| 20 to 250 nM | C=CC(=O)N1[C@H](C)CN(c2nc(=O)n3c4c(c(-c5ccc(F)cc5F)c(C(F)(F)F)cc24)SC[C@@H](c2ccc(F)cc2)C3)C[C@@H]1C [120] |
| 2 to 20 nM | C=CC(=O)N1C(C)CN(c2nc(=O)n3c4c(c(-c5ccc(F)cc5)c(C(F)(F)F)cc24)SCC(c2ccsc2)C3)CC1C (single isomer, unassigned) [Example 122] |
| 20 to 250 nM | C=CC(=O)N1[C@H](C)CN(c2nc(=O)n3c4c(c(-c5ccc(F)cc5)c(C(F)(F)F)cc24)SC[C@H](c2ccc(F)cc2)C3)C[C@@H]1C |
| 20 to 250 nM | C=CC(=O)N1C(C)CN(c2nc(=O)n3c4c(c(-c5ccc(F)cc5)c(C(F)(F)F)cc24)SCC(c2ccsc2)C3)CC1C (single isomer, unassigned) [Example 123] |
| > 250 nM | C=CC(=O)N1[C@H](C)CN(c2nc(=O)n3c4c(c(-c5cc(Cl)c(F)cc5F)c(C(F)(F)F)cc24)SC[C@H](c2cccnc2)C3)C[C@@H]1C [105B] |
| 20 to 250 nM | C=CC(=O)N1[C@H](C)CN(c2nc(=O)n3c4c(c(-c5ccc(F)cc5F)c(C(F)(F)F)cc24)SC[C@H](c2ccc(F)cc2)C3)C[C@@H]1C (atropisomer, axis not shown) [Example 118] |
| 20 to 250 nM | C=CC(=O)N1[C@H](C)CN(c2nc(=O)n3c4c(c(-c5cc(Cl)c(F)cc5F)c(C(F)(F)F)cc24)SC[C@H](c2cccnc2)C3)C[C@@H]1C [105A] |
| 20 to 250 nM | C=CC(=O)N1[C@H](C)CN(c2nc(=O)n3c4c(c(-c5cc(Cl)c(F)cc5F)c(C(F)(F)F)cc24)SC[C@H](c2cncc(F)c2)C3)C[C@@H]1C |
| 2 to 20 nM | C=CC(=O)N1[C@H](C)CN(c2nc(=O)n3c4c(c(-c5ccc(F)cc5F)c(C(F)(F)F)cc24)SC[C@@H](c2ccc(F)cc2)C3)C[C@@H]1C [121] |
